The values below come from PMC10948613, “Quantitative analysis of MBW complex formation in the context of trichome patterning” (Frontiers in Plant Science, 2024).

The experiment concerns the target T1, ProtA-tagged GLABRA3 (GL3) (Arabidopsis thaliana, UniProt Q9FN69 1-637).
T1 construct: GLABRA3 (GL3), basic helix-loop-helix (bHLH)-like transcription factor, Arabidopsis thaliana; Backbone pTREXdest30; The results write 'GL3-ProtA', but the methods say that the tag is fused to the N-terminus; also called GL3-ProtA; ProtA-tagged GL3; source: HEK293TM cells, transiently expressed, in lysate; not shown: Staphylococcus aureus protein A, N-terminal, kept
T1 sequence (looked up): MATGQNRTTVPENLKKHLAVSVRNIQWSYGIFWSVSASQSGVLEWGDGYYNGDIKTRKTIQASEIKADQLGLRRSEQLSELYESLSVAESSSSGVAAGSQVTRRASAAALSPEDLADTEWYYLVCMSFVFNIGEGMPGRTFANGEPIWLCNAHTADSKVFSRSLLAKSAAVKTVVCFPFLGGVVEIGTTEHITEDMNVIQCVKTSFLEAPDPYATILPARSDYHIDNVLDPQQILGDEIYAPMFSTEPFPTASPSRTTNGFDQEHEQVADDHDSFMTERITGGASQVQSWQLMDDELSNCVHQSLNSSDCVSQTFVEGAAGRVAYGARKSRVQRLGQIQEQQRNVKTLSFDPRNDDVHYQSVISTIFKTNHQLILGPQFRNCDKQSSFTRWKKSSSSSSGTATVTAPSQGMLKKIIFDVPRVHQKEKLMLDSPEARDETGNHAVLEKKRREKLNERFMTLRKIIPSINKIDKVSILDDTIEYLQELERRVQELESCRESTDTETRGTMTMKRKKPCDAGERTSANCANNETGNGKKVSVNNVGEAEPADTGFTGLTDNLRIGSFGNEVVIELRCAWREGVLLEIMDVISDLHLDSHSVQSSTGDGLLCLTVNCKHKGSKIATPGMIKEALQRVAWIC
Briefly: pull-down; LUMIER pull-down: raw HEK293TM extracts of ProtA-tagged GL3 and a Renilla-tagged protein mixed, dilution series of the ratio, Renilla luminescence on the beads; ratios from HA Western blots; single-site reversible binding model; KD dimensionless and relative to the total GL3 concentration. The following applies: partners not purified. Background: A western blot detects proteins with antibodies after separation by electrophoresis.

B1: Renilla-tagged GLABRA3 (GL3) (natural protein, Arabidopsis thaliana, UniProt Q9FN69 1-637, looked up)
chain: MATGQNRTTVPENLKKHLAVSVRNIQWSYGIFWSVSASQSGVLEWGDGYYNGDIKTRKTIQASEIKADQLGLRRSEQLSELYESLSVAESSSSGVAAGSQVTRRASAAALSPEDLADTEWYYLVCMSFVFNIGEGMPGRTFANGEPIWLCNAHTADSKVFSRSLLAKSAAVKTVVCFPFLGGVVEIGTTEHITEDMNVIQCVKTSFLEAPDPYATILPARSDYHIDNVLDPQQILGDEIYAPMFSTEPFPTASPSRTTNGFDQEHEQVADDHDSFMTERITGGASQVQSWQLMDDELSNCVHQSLNSSDCVSQTFVEGAAGRVAYGARKSRVQRLGQIQEQQRNVKTLSFDPRNDDVHYQSVISTIFKTNHQLILGPQFRNCDKQSSFTRWKKSSSSSSGTATVTAPSQGMLKKIIFDVPRVHQKEKLMLDSPEARDETGNHAVLEKKRREKLNERFMTLRKIIPSINKIDKVSILDDTIEYLQELERRVQELESCRESTDTETRGTMTMKRKKPCDAGERTSANCANNETGNGKKVSVNNVGEAEPADTGFTGLTDNLRIGSFGNEVVIELRCAWREGVLLEIMDVISDLHLDSHSVQSSTGDGLLCLTVNCKHKGSKIATPGMIKEALQRVAWIC
notes: GLABRA3 (GL3), basic helix-loop-helix (bHLH)-like transcription factor, Arabidopsis thaliana; Backbone pTREXdest30; also called GL3-Renilla; source: HEK293TM cells, transiently expressed, in lysate; not shown: Renilla reniformis luciferase (Rluc), N-terminal, kept
As to B1, the “relative KD (KD divided by total GL3)” value was 0.5 dimensionless, relative to the total GL3 concentration.
